By UniProt entry, the sequences of proteins in these tests, tags left out. Residues count along the entry.
UniProt P25774, 115-331: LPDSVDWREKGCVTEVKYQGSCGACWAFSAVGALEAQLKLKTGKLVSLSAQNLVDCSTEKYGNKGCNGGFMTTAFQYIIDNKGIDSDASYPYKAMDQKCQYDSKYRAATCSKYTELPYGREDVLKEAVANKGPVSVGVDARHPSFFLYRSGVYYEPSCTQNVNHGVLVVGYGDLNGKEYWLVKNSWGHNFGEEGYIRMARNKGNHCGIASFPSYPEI

In US20090099157A1, “TETRAHYDRO-PYRAZOLO-PYRIDINE THIOETHER MODULATORS OF CATHEPSIN S” (priority 2007, published 2009):

Target: Recombinant human cathepsin S (CatS) (Homo sapiens, UniProt P25774)
Experiment: biochemical

Row | IC50 | Compound
1 | 150 nM | CS(=O)(=O)N1CCc2c(c(-c3ccc(C(F)(F)F)c(SCCN4CCC(F)CC4)c3)nn2CC(O)CN2CCCCC2)C1 (stereo not shown) [Example 188, 1-{3-[3-{[2-(4-Fluoropiperidin-1-yl)ethyl]sulfanyl}-4-(trifluoromethyl)phenyl]-5-(methylsulfonyl)-4,5,6,7-tetrahydro-1H-pyrazolo[4,3-c]pyridin-1-yl}-3-piperidin-1-ylpropan-2-ol]
2 | 1050 nM | CS(=O)(=O)N1CCc2c(c(-c3ccc(C(F)(F)F)c(SCC(=O)Nc4ccc(OCc5ccccc5)cc4)c3)nn2CC(O)CN2CCC(N3CCCC3=O)CC2)C1 (stereo not shown) [Example 72, N-(4-Benzyloxy-phenyl)-2-[5-(1-{2-hydroxy-3-[4-(2-oxo-pyrrolidin-1-yl)-piperidin-1-yl]-propyl}-5-methanesulfonyl-4,5,6,7-tetrahydro-1H-pyrazolo[4,3-c]pyridin-3-yl)-2-trifluoromethyl-phenylsulfanyl]-acetamide]
3 | 260 nM | CC1CCN(CC(O)Cn2nc(-c3ccc(C(F)(F)F)c(SCCN4CCCC4)c3)c3c2CCN(S(C)(=O)=O)C3)CC1 (stereo not shown) [Example 345, 1-(4-Methylpiperidin-1-yl)-3-[5-(methylsulfonyl)-3-{3-[(2-pyrrolidin-1-ylethyl)sulfanyl]-4-(trifluoromethyl)phenyl}-4,5,6,7-tetrahydro-1H-pyrazolo[4,3-c]pyridin-1-yl]propan-2-ol]
4 | 23 nM | CS(=O)(=O)N1CCc2c(c(-c3ccc(C(F)(F)F)c(SCCN4CCOCC4)c3)nn2CC(O)CN2CCC(c3ccccc3)CC2)C1 (stereo not shown) [Example 662, 1-[5-(Methylsulfonyl)-3-{3-[(2-morpholin-4-ylethyl)sulfanyl]-4-(trifluoromethyl)phenyl}-4,5,6,7-tetrahydro-1H-pyrazolo[4,3-c]pyridin-1-yl]-3-(4-phenylpiperidin-1-yl)propan-2-ol]
5 | 240 nM | CS(=O)(=O)N1CCc2c(c(-c3ccc(C(F)(F)F)c(SCCN4CCC(F)CC4)c3)nn2C[C@@H](O)CN2CCC[C@H](O)C2)C1 [Example 481, (3S)-1-[(2S)-3-{3-[3-{[2-(4-Fluoropiperidin-1-yl)ethyl]sulfanyl}-4-(trifluoromethyl)phenyl]-5-(methylsulfonyl)-4,5,6,7-tetrahydro-1H-pyrazolo[4,3-c]pyridin-1-yl}-2-hydroxypropyl]piperidin-3-ol]
6 | 1870 nM | CC(C)(C)OC(=O)N1CCC(CC(=O)N2CCc3c(c(-c4ccc(C(F)(F)F)c(SCCN5CCOCC5)c4)nn3CC(O)CN3CCCCC3)C2)CC1 (stereo not shown) [Example 869, 1,1-Dimethylethyl 4-{2-[1-(2-hydroxy-3-piperidin-1-ylpropyl)-3-{3-[(2-morpholin-4-ylethyl)sulfanyl]-4-(trifluoromethyl)phenyl}-1,4,6,7-tetrahydro-5H-pyrazolo[4,3-c]pyridin-5-yl]-2-oxoethyl}piperidine-1-carboxylate]
7 | 30 nM | CC(C)(C)C1CCN(C[C@H](O)Cn2nc(-c3ccc(C(F)(F)F)c(SCCN4CCC(F)(F)CC4)c3)c3c2CCN(S(C)(=O)=O)C3)CC1 [Example 213, (2S)-1-{3-[3-{[2-(4,4-Difluoropiperidin-1-yl)ethyl]sulfanyl}-4-(trifluoromethyl)phenyl]-5-(methylsulfonyl)-4,5,6,7-tetrahydro-1H-pyrazolo[4,3-c]pyridin-1-yl}-3-[4-(1,1-dimethylethyl)piperidin-1-yl]propan-2-ol]
8 | 680 nM | CCS(=O)(=O)NC1CCN(CC(O)Cn2nc(-c3ccc(C(F)(F)F)c(SCCN4CCCC4)c3)c3c2CCN(S(C)(=O)=O)C3)CC1 (stereo not shown) [Example 715, N-(1-{2-Hydroxy-3-[5-(methylsulfonyl)-3-{3-[(2-pyrrolidin-1-ylethyl)sulfanyl]-4-(trifluoromethyl)phenyl}-4,5,6,7-tetrahydro-1H-pyrazolo[4,3-c]pyridin-1-yl]propyl}piperidin-4-yl)ethanesulfonamide]
9 | 330 nM | CS(=O)(=O)N1CCc2c(c(-c3ccc(C(F)(F)F)c(SCCN4CCC(F)CC4)c3)nn2C[C@@H](O)CN2CCC(F)(F)CC2)C1 [Example 590, (2S)-1-(4,4-Difluoropiperidin-1-yl)-3-{3-[3-{[2-(4-fluoropiperidin-1-yl)ethyl]sulfanyl}-4-(trifluoromethyl)phenyl]-5-(methylsulfonyl)-4,5,6,7-tetrahydro-1H-pyrazolo[4,3-c]pyridin-1-yl}propan-2-ol]
10 | 130 nM | CS(=O)(=O)N1CCc2c(c(-c3ccc(C(F)(F)F)c(SCCN4CCCC(CO)C4)c3)nn2CC(O)CN2CCC(C(=O)N3CCCCC3)CC2)C1 (stereo not shown) [Example 862, 1-{3-[3-({2-[3-(Hydroxymethyl)piperidin-1-yl]ethyl}sulfanyl)-4-(trifluoromethyl)phenyl]-5-(methylsulfonyl)-4,5,6,7-tetrahydro-1H-pyrazolo[4,3-c]pyridin-1-yl}-3-[4-(piperidin-1-ylcarbonyl)piperidin-1-yl]propan-2-ol]
11 | 190 nM | CC(=O)N1CCc2c(c(-c3ccc(C(F)(F)F)c(SCCN4CCCCC4)c3)nn2CC(O)CN2CCC(N3CCCC3=O)CC2)C1 (stereo not shown) [Example 246, 1-{1-[3-(5-Acetyl-3-{3-[(2-piperidin-1-ylethyl)sulfanyl]-4-(trifluoromethyl)phenyl}-4,5,6,7-tetrahydro-1H-pyrazolo[4,3-c]pyridin-1-yl)-2-hydroxypropyl]piperidin-4-yl}pyrrolidin-2-one]
12 | 130 nM | CS(=O)(=O)N1CCc2c(c(-c3ccc(C(F)(F)F)c(SCCN4CCC(F)CC4)c3)nn2CC(O)CN2CCC(CCO)CC2)C1 (stereo not shown) [Example 193, 1-{3-[3-{[2-(4-Fluoropiperidin-1-yl)ethyl]sulfanyl}-4-(trifluoromethyl)phenyl]-5-(methylsulfonyl)-4,5,6,7-tetrahydro-1H-pyrazolo[4,3-c]pyridin-1-yl}-3-[4-(2-hydroxyethyl)piperidin-1-yl]propan-2-ol]
13 | 570 nM | CC1CCN(CCSc2cc(-c3nn(C[C@@H](O)CN4CCC(C)(O)CC4)c4c3CN(S(C)(=O)=O)CC4)ccc2C(F)(F)F)CC1 [Example 549, 1-[(2S)-2-Hydroxy-3-{3-[3-{[2-(4-methylpiperidin-1-yl)ethyl]sulfanyl}-4-(trifluoromethyl)phenyl]-5-(methylsulfonyl)-4,5,6,7-tetrahydro-1H-pyrazolo[4,3-c]pyridin-1-yl}propyl]-4-methylpiperidin-4-ol]
14 | 160 nM | CS(=O)(=O)N1CCc2c(c(-c3ccc(C(F)(F)F)c(SCCN4CCC(F)(F)CC4)c3)nn2C[C@@H](O)CN2CCSCC2)C1 [Example 589, (2S)-1-{3-[3-{[2-(4,4-Difluoropiperidin-1-yl)ethyl]sulfanyl}-4-(trifluoromethyl)phenyl]-5-(methylsulfonyl)-4,5,6,7-tetrahydro-1H-pyrazolo[4,3-c]pyridin-1-yl}-3-thiomorpholin-4-ylpropan-2-ol]
15 | 70 nM | CS(=O)(=O)N1CCc2c(c(-c3ccc(C(F)(F)F)c(SCC(=O)N4CCCCCC4)c3)nn2CCCN2CCC(N3CCCC3=O)CC2)C1 [Example 95, 1-[1-(3-{3-[3-(2-Azepan-1-yl-2-oxo-ethylsulfanyl)-4-trifluoromethyl-phenyl]-5-methanesulfonyl-4,5,6,7-tetrahydro-pyrazolo[4,3-c]pyridin-1-yl}-propyl)-piperidin-4-yl]-pyrrolidin-2-one]
16 | > 20000 nM | O=C(CSc1cc(-c2nn(CC(O)CN3CC[C@H](C(F)(F)F)C3)c3c2CNCC3)ccc1C(F)(F)F)N1CCCC1 (stereo partly drawn) [Example 315, 1-(3-{3-[(2-Oxo-2-pyrrolidin-1-ylethyl)sulfanyl]-4-(trifluoromethyl)phenyl}-4,5,6,7-tetrahydro-1H-pyrazolo[4,3-c]pyridin-1-yl)-3-[(3S)-3-(trifluoromethyl)pyrrolidin-1-yl]propan-2-ol]
17 | 480 nM | COC1CCN(CC(O)Cn2nc(-c3ccc(C(F)(F)F)c(SCCN4CCOCC4)c3)c3c2CCN(S(C)(=O)=O)C3)CC1 (stereo not shown) [Example 469, 1-[4-(Methyloxy)piperidin-1-yl]-3-[5-(methylsulfonyl)-3-{3-[(2-morpholin-4-ylethyl)sulfanyl]-4-(trifluoromethyl)phenyl}-4,5,6,7-tetrahydro-1H-pyrazolo[4,3-c]pyridin-1-yl]propan-2-ol]
18 | 40 nM | CN(C)c1ccc2c(n1)n(C1CCN(CCCn3nc(-c4ccc(C(F)(F)F)c(SCCO)c4)c4c3CCN(S(C)(=O)=O)C4)CC1)c(=O)n2C [Example 3, 5-Dimethylamino-3-[1-(3-{3-[3-(2-hydroxy-ethylsulfanyl)-4-trifluoromethyl-phenyl]-5-methanesulfonyl-4,5,6,7-tetrahydro-pyrazolo[4,3-c]pyridin-1-yl}-propyl)piperidin-4-yl]-1-methyl-1,3-dihydro-imidazo[4,5-b]pyridin-2-one]
19 | 590 nM | CS(=O)(=O)N1CCc2c(c(-c3ccc(C(F)(F)F)c(SCCN4CCC[C@H](O)C4)c3)nn2C[C@@H](O)CN2CCCCC2)C1 [Example 393, (3S)-1-(2-{[5-{1-[(2S)-2-Hydroxy-3-piperidin-1-ylpropyl]-5-(methylsulfonyl)-4,5,6,7-tetrahydro-1H-pyrazolo[4,3-c]pyridin-3-yl}-2-(trifluoromethyl)phenyl]sulfanyl}ethyl)piperidin-3-ol]
20 | 2540 nM | CC1CCN(CC(O)Cn2nc(-c3ccc(C(F)(F)F)c(SCC(=O)N4CCCC4)c3)c3c2CCNC3)CC1 (stereo not shown) [Example 293, 1-(4-Methylpiperidin-1-yl)-3-(3-{3-[(2-oxo-2-pyrrolidin-1-ylethyl)sulfanyl]-4-(trifluoromethyl)phenyl}-4,5,6,7-tetrahydro-1H-pyrazolo[4,3-c]pyridin-1-yl)propan-2-ol]
21 | 10 nM | CS(=O)(=O)N1CCc2c(c(-c3ccc(C(F)(F)F)c(SCCN4CCCCC4)c3)nn2CC(O)CN2CCC(c3ccccn3)CC2)C1 (stereo not shown) [Example 155, 1-[5-(Methylsulfonyl)-3-{3-[(2-piperidin-1-ylethyl)sulfanyl]-4-(trifluoromethyl)phenyl}-4,5,6,7-tetrahydro-1H-pyrazolo[4,3-c]pyridin-1-yl]-3-(4-pyridin-2-ylpiperidin-1-yl)propan-2-ol]
22 | 1070 nM | OC(CN1CCC(O)(c2ccccn2)CC1)Cn1nc(-c2ccc(C(F)(F)F)c(SCCN3CCC(F)(F)C3)c2)c2c1CCNC2 (stereo not shown) [Example 507, 1-(3-{3-[3-{[2-(3,3-Difluoropyrrolidin-1-yl)ethyl]sulfanyl}-4-(trifluoromethyl)phenyl]-4,5,6,7-tetrahydro-1H-pyrazolo[4,3-c]pyridin-1-yl}-2-hydroxypropyl)-4-pyridin-2-ylpiperidin-4-ol]
